The results in this text go back to ChEMBL document CHEMBL1268872 (Bioorg Med Chem Lett, 2010).

By UniProt entry, the sequences of proteins in these tests, tags left out.
UniProt Q16539, whole entry: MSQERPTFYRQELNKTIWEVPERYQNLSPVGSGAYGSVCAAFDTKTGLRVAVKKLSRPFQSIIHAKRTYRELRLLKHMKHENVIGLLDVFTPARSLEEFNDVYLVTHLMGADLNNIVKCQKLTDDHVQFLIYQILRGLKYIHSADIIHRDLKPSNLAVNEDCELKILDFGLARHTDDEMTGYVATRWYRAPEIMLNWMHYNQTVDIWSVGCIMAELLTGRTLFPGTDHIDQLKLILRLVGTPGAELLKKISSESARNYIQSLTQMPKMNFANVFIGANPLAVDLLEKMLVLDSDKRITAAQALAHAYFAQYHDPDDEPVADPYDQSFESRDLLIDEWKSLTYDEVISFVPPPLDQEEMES

Experiment [1] concerns the target T1, Mitogen-activated protein kinase 14 (Homo sapiens, UniProt Q16539). Nature of the experiment: Binding affinity to unphosphorylated p38alpha by fluoroprobe binding assay.
Experiment [2] concerns the target T1, Mitogen-activated protein kinase 14. Nature of the experiment: Inhibition of p38alpha by fluoroprobe binding assay.
The target in experiment [3] is RAF proto-oncogene serine/threonine-protein kinase (Homo sapiens, UniProt P04049). The experiment can be described thus: Inhibition of CRAF.

The structures appear in SMILES notation.

For the compound `NC(=O)Cc1cccc(-n2nc(-c3cccs3)cc2NC(=O)Nc2cccc(Cl)c2Cl)c1`, in experiment [1], the IC50 was determined as 0.048 µM.

The compound `CC(C)(C)c1cc(NC(=O)Nc2cccc3ccccc23)n(-c2ccc(CO)cc2)n1` registered an IC50 in experiment [2] of 0.027 µM.

For the compound `CC(C)(C)c1cc(NC(=O)Nc2cccc(Cl)c2Cl)n(-c2cccc(CC(N)=O)c2)n1`, the IC50 in experiment [3] was determined as 0.011 µM; in experiment [1], 0.009 µM.
